{
  "source": "patent EP3705574A1",
  "about": "“SPLIT LUCIFERASE, AND HIGHLY SENSITIVE VITAMIN D RECEPTOR LIGAND DETECTION METHOD USING SAME” (Public University Corporation Toyama Prefectural University, priority 2017, dated 2019)",
  "key": {"[1]": {"tested_on": "6xHN-LucN-[…] + 6xHN-LBD(R274L)-LucC (double molecular type, split firefly luciferase, hVDR LBD with R274L mutation)", "assay": "Luciferase assay in in vitro system, double molecular type biosensor", "type": "biochemical, human", "conditions": "100 nM 1α,25(OH)2D3, in vitro"}, "[2]": {"tested_on": "double molecular type LucN-[…] + LBD-LucC biosensor (split firefly luciferase, hVDR LBD 121-427 aa)", "conditions": "100 nM 1α,25(OH)2D3, COS-7 cells co-expressing both proteins, after 60 minutes"}},
  "data": [
    {"smiles": "C=C1/C(=C\\C=C2/CCC[C@]3(C)[C@@H]([C@H](C)CCCC(C)(C)O)CC[C@@H]23)C[C@@H](O)C[C@@H]1O", "note": "[1α,25(OH)2D3, 1α,25-dihydroxyvitamin D3]", "values": [
      {"measurement": "responsiveness decreased compared to 6xHN-LBD-LucC", "setting": "[1]", "value": "about 25%"},
      {"measurement": "light emission response", "setting": "[2]", "value": "increased in light emission"}
    ]}
  ]
}
